# Reported melting point values for industrial, environmental and drug-like chemicals

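These are experimental values that the OPERA curators gathered from public databases to train and test their QSAR models. The files give a single number for a compound and property, which may rest on several reports. How each value was measured is not recorded, so precision varies. Where a salt, mixture or single isomer is drawn, the source does not say that exactly this form was tested. Unmarked limits or estimates from the upstream databases cannot be ruled out.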

Melting points are in °C.
The databases behind each value are named after "via".

| compound | MP (°C) | via |
|---|---|---|
| O=C(O)c1cccc(N2C(=O)C=CC2=O)c1 | 232 | OCHEM |
| COC(=O)c1sccc1S(N)(=O)=O | 121 | OCHEM |
| Cc1ccc(F)c(O)c1Cl | 48.5 | OCHEM |
| CCOCCCNC(=O)CC#N | 47 | OCHEM |
| O=S(=O)(Cl)c1ccc2c(c1)CCC2 | 37.5 | OCHEM |
| COc1ccccc1C=NO | 87 | OCHEM |
| O=C(O)c1cc(Cl)c(Cl)[nH]1 | 165 | OCHEM |
| CCCCc1oc2ccc(NS(C)(=O)=O)cc2c1C(=O)c1ccc(OCCCN(CCCC)CCCC)cc1 | 151 | PubChem |
| CCC1=C(O)C(=O)CC1 | 39 | PubChem |
| NNC(=O)CSc1nnc(-c2ccccc2)n1-c1ccccc1 | 243 | OCHEM |
| O=C(O)C1CCCCN1C(=O)c1ccccc1 (centres undefined) | 129 | OCHEM |
| CNC(=S)N(C)C | 87.5 | PubChem |
| CCOc1ccc(C2CCCN2)cc1 (centres undefined) | 17 | OCHEM |
| CCOC(=O)c1c(N)sc(-c2ccccc2)c1C | 95 | OCHEM |
| COc1ccccc1-c1nc(N)n[nH]1 | 215 | OCHEM |
| CSCCC(C(=O)O)N1C(=O)c2ccccc2C1=O (centres undefined) | 126 | OCHEM |
| COc1ccc(C(N)CC(=O)O)cc1 (centres undefined) | 238 | OCHEM |
| CCOC(=O)CC(=O)c1[nH]c(C)c(C(=O)OCC)c1C | 142 | OCHEM |
| Cc1ccc(C(=O)C(Cl)c2ccc(C)cc2)cc1 (centres undefined) | 68 | OCHEM |
| CCCCCCCCCCCCCCCCCCCCCCN(C)C | 40.8 | eChemPortal |
| O=C(O)c1cc(-c2ccc(Br)cc2)nc2ccccc12 | 242 | OCHEM |
| O=Cc1c(Cl)nc2ccccn12 | 125 | OCHEM |
| CSc1nn2ccccc2c1[N+](=O)[O-] | 224 | eChemPortal |
| CCOC(=O)C(=O)c1c(C)[nH]c2ccccc12 | 128 | OCHEM |
| O=C(O)C1(c2ccc(Br)cc2)CCC1 | 118 | OCHEM |
| Clc1ncnc2sc3c(c12)CCCC3 | 95.5 | OCHEM |
| CC(C)(O)C#Cc1ccccn1 | 82.5 | OCHEM |
| Clc1ncnc2c(Br)cccc12 | 160 | OCHEM |
| NNc1ncccc1C(F)(F)F | 72 | OCHEM |
| Oc1ccc2c(n1)CCC2 | 37 | OCHEM |
| C[N+](C)(CCCCCC[N+](C)(C)C1c2ccccc2-c2ccccc21)C1c2ccccc2-c2ccccc21.[Br-].[Br-] | 154 | OCHEM |
| CCOc1ccc(NC(=O)CC#N)cc1 | 97.5 | OCHEM |
| O=C(O)c1ccc(Cl)c(S(=O)(=O)Cl)c1 | 144 | OCHEM |
| CN1CCN(C(=O)c2ccccc2N)CC1 | 75 | OCHEM |
| O=c1[nH]c(CCl)nc2scc(-c3ccccc3)c12 | 228 | OCHEM |
| O=C(CCl)Nc1ccc2nn(C3CCCC3)nc2c1 | 150 | OCHEM |
| N#Cc1cc(N)ccc1Cl | 128 | OCHEM |
| CS(=O)(=O)c1cc(C(=O)O)ccc1Cl | 217 | OCHEM |
| Nc1ccccc1N1CCCC1=O | 100 | OCHEM |
| O=C1Cc2ccccc2C(=O)N1 | 191 | OCHEM |
| O=C(O)c1cccc(CN2C(=O)c3ccccc3C2=O)c1 | 207 | OCHEM |
| NC(=S)C1CC1 | 113 | OCHEM |
| O=Cc1ccc(-c2ccc([N+](=O)[O-])cc2Br)o1 | 134 | OCHEM |

The 4 highest values of MP among the entries above:

| compound | MP (°C) | via |
|---|---|---|
| NNC(=O)CSc1nnc(-c2ccccc2)n1-c1ccccc1 | 243 | OCHEM |
| O=C(O)c1cc(-c2ccc(Br)cc2)nc2ccccc12 | 242 | OCHEM |
| COc1ccc(C(N)CC(=O)O)cc1 (centres undefined) | 238 | OCHEM |
| O=C(O)c1cccc(N2C(=O)C=CC2=O)c1 | 232 | OCHEM |

Values as listed in the OPERA 2.9 repository of K. Mansouri.